Laboratory results reported in patent US20030010621A1, “NOVEL SYNTHESIS OF PHTHALOCYANINES BY MICROWAVE IRRADIATION” (priority 2001, published 2003).

Test: Solubility of lab-made phthalocyanines in organic solvents
Assay type: physicochemical

Substance	solubility (THF)	solubility (acetone)	solubility (methanol)	solubility (n-hexane)	solubility (toluene)
Central Metal-free tetra-t-butyl-phthalocyanine [Example H2Pc]	Δ (hardly soluble (<1 wt. %))	Δ (hardly soluble (<1 wt. %))	Δ (hardly soluble (<1 wt. %))	Δ (hardly soluble (<1 wt. %))	Δ (hardly soluble (<1 wt. %))
Cu tetra-t-butyl-phthalocyanine [CuPc]	–	Δ (hardly soluble (<1 wt. %))	Δ (hardly soluble (<1 wt. %))	–	–
Zn-tetra-t-butyl-phthalocyanine [ZnPc]	⊚ (soluble (>3 wt. %))	Δ (hardly soluble (<1 wt. %))	–	◯ (slightly soluble (1 wt. % ˜ 3 wt. %))	⊚ (soluble (>3 wt. %))
